This is a selection; strong and weak results do not stand in their true shares. Some of these compounds have results that are not shown, active ones among them. Calls of active or inactive are those of the source. Rule as the data show it: active = TR-FRET ratio above about 2000; inactive = the rest.

The assay can be described thus: detection-format interference in TR-FRET ratio – biochemical, artefact control for PPARgamma SRC-2 agonist project, primary screen (AID 1049). Conditions: TR-FRET artefact counter-screen; at 8 µM; stronger effect = higher value. For orientation: In TR-FRET formats the signal depends on donor and acceptor labels being close together.
Consider `O=C(OC1CN2CCC1CC2)C(CO)(c1ccccc1)c1ccccc1` (centres undefined), for which the TR-FRET ratio was inactive: 1510.
As for `CN(C)c1cccc(C(=O)NCC2(N(C)C)CCCCC2)c1`, the figure is inactive: 1640.
Consider `COc1cccc(C(=O)NCC2(N3CCCCC3)CCCCC2)c1`, for which the TR-FRET ratio is inactive: 1460.
Regarding `CN(C)C1CCCC1OC(=O)C(O)(c1ccccc1)c1ccccc1` (centres undefined), the TR-FRET ratio is inactive: 1550.
Regarding `Cc1ccccc1C(=O)NCC1(N2CCCCC2)CCCCC1`, the TR-FRET ratio was inactive: 1660.
In the case of `CCN1CCCC(OC(=O)C2(O)c3ccccc3C=Cc3ccccc32)C1` (centres undefined), the TR-FRET ratio was inactive: 1510.
In the case of `C=CCN1CCN(CCOC(=O)C(O)(c2ccccc2)c2ccccc2)CC1`, the TR-FRET ratio is inactive: 1600.
As for `O=C(NCC1(N2CCCCC2)CCCCC1)c1cc([N+](=O)[O-])ccc1Cl`, the figure is inactive: 1360; as for `CC(C)N1C(=O)CC2(CCN(CCOC(=O)C(O)(c3ccccc3)c3ccccc3)CC2)C1=O`, inactive: 1660.

Values taken from PubChem BioAssay AID1049 (The Scripps Research Institute Molecular Screening Center, 2008).
